Kd data for eight compounds are collected here from US7829063B2, “Development of molecular imaging probes for carbonic anhydrase-IX using click chemistry” (Siemens Medical Solutions USA, Inc., priority 2007, dated 2010).

For this assay, the target named is CA-IX (Homo sapiens, UniProt Q16790). Put plainly: Binding affinity (Kd) determination for CA-IX inhibitors, DNSA fluorescence competition assay, Scatchard plots. Conditions: read-out: Kd (nM) CA-IX; Table 3.
In the case of `NS(=O)(=O)c1nc2ccc(OCc3cn(CC(=O)NC(C[S+]([O-])Cc4cccc(OCCF)c4)C(=O)O)nn3)cc2s1` (single isomer, unassigned) [VM2-128B], the Kd (in general, a measure of binding affinity in units of concentration) was determined as 2.5 nM.
The same measure for `COC(=O)[C@H](CSCc1cccc(OCCF)c1)NC(=O)Cn1cc(COc2ccc3nc(S(N)(=O)=O)sc3c2)nn1`: 10 nM.
The same measure for `NS(=O)(=O)c1nc2ccc(OCc3cn(CC(=O)N[C@@H](COCc4cccc(OCCF)c4)C(=O)O)nn3)cc2s1`: 5 nM; for `COC(=O)[C@H](COCc1cccc(OCCF)c1)NC(=O)Cn1cc(COc2ccc3nc(S(N)(=O)=O)sc3c2)nn1`: 11 nM; for `COC(=O)[C@@H](CSCc1cccc(OCCN=[N+]=[N-])c1)NC(=O)Cn1cc(COc2ccc3nc(S(N)(=O)=O)sc3c2)nn1`: 10 nM.
In the case of `NS(=O)(=O)c1nc2ccc(OCc3cn(CC(=O)N[C@@H](COCc4cccc(OCC(O)CF)c4)C(=O)O)nn3)cc2s1` (some centres unmarked) it was 5 nM.
For `NS(=O)(=O)c1nc2ccc(OCc3cn(CC(=O)NC(C[S+]([O-])Cc4cccc(OCCF)c4)C(=O)O)nn3)cc2s1` (single isomer, unassigned) [VM2-128C], the Kd was 5 nM.
As to `NS(=O)(=O)c1nc2ccc(OCc3cn(CC(=O)N[C@H](CSCc4cccc(OCc5cn(C(CO)CF)nn5)c4)C(=O)O)nn3)cc2s1` (some centres unmarked), the Kd amounted to 5 nM.
